Experimental data reported in ChEMBL document CHEMBL4680180, “Discovery of 3-((dimethylamino)methyl)-4-hydroxy-4-(3-methoxyphenyl)-N-phenylpiperidine-1-carboxamide as novel potent analgesic” (2020).

By UniProt entry, the sequences of proteins in these tests, tags left out. Where a name states a change or a piece, a line headed by the entry shows the natural chain unless it says otherwise.
UniProt P33535, whole entry, looked up: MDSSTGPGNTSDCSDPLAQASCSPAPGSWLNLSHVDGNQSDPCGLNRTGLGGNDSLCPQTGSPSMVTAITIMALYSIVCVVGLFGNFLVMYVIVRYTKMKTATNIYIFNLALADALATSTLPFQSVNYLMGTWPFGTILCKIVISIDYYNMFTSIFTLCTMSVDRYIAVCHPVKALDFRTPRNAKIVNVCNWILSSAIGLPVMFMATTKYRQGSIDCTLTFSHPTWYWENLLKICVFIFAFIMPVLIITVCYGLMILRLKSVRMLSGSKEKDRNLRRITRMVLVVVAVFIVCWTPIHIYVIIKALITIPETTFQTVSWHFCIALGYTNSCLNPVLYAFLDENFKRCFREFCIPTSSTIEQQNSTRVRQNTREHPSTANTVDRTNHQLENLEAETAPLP
UniProt P33533, whole entry, looked up: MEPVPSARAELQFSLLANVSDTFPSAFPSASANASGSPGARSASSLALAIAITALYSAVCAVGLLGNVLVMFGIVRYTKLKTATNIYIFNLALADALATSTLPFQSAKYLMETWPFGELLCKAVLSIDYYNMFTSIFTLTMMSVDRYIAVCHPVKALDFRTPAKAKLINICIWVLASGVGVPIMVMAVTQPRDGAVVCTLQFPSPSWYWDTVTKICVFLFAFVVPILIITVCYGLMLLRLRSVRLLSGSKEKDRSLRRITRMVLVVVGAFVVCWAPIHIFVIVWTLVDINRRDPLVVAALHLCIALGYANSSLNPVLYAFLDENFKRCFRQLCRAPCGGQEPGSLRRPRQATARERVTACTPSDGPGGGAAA
UniProt P41145: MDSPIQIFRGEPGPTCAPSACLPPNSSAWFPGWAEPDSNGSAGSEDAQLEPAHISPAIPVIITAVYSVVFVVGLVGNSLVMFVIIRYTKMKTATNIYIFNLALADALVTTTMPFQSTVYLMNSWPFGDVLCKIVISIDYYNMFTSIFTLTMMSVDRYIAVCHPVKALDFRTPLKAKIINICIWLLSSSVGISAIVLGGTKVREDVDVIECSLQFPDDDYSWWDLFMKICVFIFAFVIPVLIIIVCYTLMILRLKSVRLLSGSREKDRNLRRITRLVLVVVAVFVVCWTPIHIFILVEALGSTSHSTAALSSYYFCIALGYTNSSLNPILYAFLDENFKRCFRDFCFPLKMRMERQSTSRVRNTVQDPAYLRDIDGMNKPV

Legend:
[1] = target: T1, Mu-type opioid receptor (Rattus norvegicus, UniProt P33535); assay: Agonist activity at rat mu opioid receptor expressed in CHO cells incubated for 1 hr by [35S]GTPgammaS binding based liquid scintillation counting method
[2] = target: T2, Delta-type opioid receptor (Rattus norvegicus, UniProt P33533); assay: Displacement of [3H]-DPDPE from rat delta opioid receptor expressed in CHO cells incubated for 30 mins by liquid scintillation counting method
[3] = target: T1, Mu-type opioid receptor; assay: Displacement of [3H]-DAMGO from rat mu opioid receptor expressed in CHO cells incubated for 30 mins by liquid scintillation counting method
[4] = target: T2, Delta-type opioid receptor; assay: Agonist activity at rat delta opioid receptor expressed in CHO cells incubated for 1 hr by [35S]GTPgammaS binding based liquid scintillation counting method
[5] = target: T3, Kappa-type opioid receptor (Homo sapiens, UniProt P41145); assay: Agonist activity at human kappa opioid receptor expressed in CHO cells incubated for 1 hr by [35S]GTPgammaS binding based liquid scintillation counting method
[6] = target: T3, Kappa-type opioid receptor; assay: Displacement of [3H]-U69593 from human kappa opioid receptor expressed in CHO cells incubated for 30 mins by liquid scintillation counting method

CN(C)CC1CN(C(=O)Nc2ccccc2)CCC1(O)c1cccc(O)c1 (stereo not drawn)
EC50 [1]: 0.0023 µM
Ki [2]: 0.104 µM
Ki [3]: 0.0012 µM
EC50 [4]: 0.112 µM
EC50 [5]: 0.11 µM
Ki [6]: 0.0714 µM

CN(C)C[C@H]1CCCC[C@]1(O)c1cccc(O)c1
EC50 [4]: Not Active
EC50 [5]: Not Active

CN(C)CC1CN(C(=O)Nc2cccc(Cl)c2)CCC1(O)c1ccccc1 (stereo not drawn)
Ki [2]: 0.537 µM
Ki [3]: 0.0141 µM
Ki [6]: 0.719 µM

CN(C)CC1CN(C(=O)Nc2ccccc2)CCC1(O)c1ccccc1 (stereo not drawn)
Ki [2]: 0.849 µM
Ki [3]: 0.0073 µM
Ki [6]: 0.0491 µM

C[C@@H](NC(=O)[C@@H](N)Cc1ccc(O)cc1)C(=O)NCC(=O)N(C)[C@@H](Cc1ccccc1)C(=O)NCCO
EC50 [4]: Not Active
EC50 [5]: Not Active

CC1(C)SSC(C)(C)[C@@H](NC(=O)[C@@H](N)Cc2ccc(O)cc2)C(=O)NCC(=O)N[C@@H](Cc2ccccc2)C(=O)N[C@H]1C(=O)O
EC50 [1]: Not Active
EC50 [5]: Not Active
